From IntAct's records for PubMed 35512704

B1: RAC-alpha serine/threonine-protein kinase (Homo sapiens), P31749 (parent)
chain: MSDVAIVKEGWLHKRGEYIKTWRPRYFLLKNDGTFIGYKERPQDVDQREAPLNNFSVAQCQLMKTERPRPNTFIIRCLQWTTVIERTFHVETPEEREEWTTAIQTVADGLKKQEEEEMDFRSGSPSDNSGAEEMEVSLAKPKHRVTMNEFEYLKLLGKGTFGKVILVKEKATGRYYAMKILKKEVIVAKDEVAHTLTENRVLQNSRHPFLTALKYSFQTHDRLCFVMEYANGGELFFHLSRERVFSEDRARFYGAEIVSALDYLHSEKNVVYRDLKLENLMLDKDGHIKITDFGLCKEGIKDGATMKTFCGTPEYLAPEVLEDNDYGRAVDWWGLGVVMYEMMCGRLPFYNQDHEKLFELILMEEIRFPRTLGPEAKSLLSGLLKKDPKQRLGGGSEDAKEIMQHRFFAGIVWQHVYEKKLSPPFKPQVTSETDTRYFDEEFTAQMITITPPDQDDSMECVDSERRPHFPQFSYSASGTA
partner: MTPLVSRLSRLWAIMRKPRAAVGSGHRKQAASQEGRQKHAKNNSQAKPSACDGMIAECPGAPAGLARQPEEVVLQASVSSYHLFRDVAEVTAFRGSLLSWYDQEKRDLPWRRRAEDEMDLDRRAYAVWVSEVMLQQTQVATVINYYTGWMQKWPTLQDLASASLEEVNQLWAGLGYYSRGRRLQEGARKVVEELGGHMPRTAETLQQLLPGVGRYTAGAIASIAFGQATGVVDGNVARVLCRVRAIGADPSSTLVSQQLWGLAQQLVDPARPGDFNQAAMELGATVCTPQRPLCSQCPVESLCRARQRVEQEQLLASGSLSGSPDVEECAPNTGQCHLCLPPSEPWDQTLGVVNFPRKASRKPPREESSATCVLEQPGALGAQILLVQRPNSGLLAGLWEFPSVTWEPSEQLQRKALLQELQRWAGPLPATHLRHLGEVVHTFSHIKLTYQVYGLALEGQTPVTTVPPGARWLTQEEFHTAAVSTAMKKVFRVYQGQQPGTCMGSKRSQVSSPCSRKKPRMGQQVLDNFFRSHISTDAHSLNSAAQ
B2: RAC-alpha serine/threonine-protein kinase (Homo sapiens), P31749 (parent)
chain: B1 chain
partner: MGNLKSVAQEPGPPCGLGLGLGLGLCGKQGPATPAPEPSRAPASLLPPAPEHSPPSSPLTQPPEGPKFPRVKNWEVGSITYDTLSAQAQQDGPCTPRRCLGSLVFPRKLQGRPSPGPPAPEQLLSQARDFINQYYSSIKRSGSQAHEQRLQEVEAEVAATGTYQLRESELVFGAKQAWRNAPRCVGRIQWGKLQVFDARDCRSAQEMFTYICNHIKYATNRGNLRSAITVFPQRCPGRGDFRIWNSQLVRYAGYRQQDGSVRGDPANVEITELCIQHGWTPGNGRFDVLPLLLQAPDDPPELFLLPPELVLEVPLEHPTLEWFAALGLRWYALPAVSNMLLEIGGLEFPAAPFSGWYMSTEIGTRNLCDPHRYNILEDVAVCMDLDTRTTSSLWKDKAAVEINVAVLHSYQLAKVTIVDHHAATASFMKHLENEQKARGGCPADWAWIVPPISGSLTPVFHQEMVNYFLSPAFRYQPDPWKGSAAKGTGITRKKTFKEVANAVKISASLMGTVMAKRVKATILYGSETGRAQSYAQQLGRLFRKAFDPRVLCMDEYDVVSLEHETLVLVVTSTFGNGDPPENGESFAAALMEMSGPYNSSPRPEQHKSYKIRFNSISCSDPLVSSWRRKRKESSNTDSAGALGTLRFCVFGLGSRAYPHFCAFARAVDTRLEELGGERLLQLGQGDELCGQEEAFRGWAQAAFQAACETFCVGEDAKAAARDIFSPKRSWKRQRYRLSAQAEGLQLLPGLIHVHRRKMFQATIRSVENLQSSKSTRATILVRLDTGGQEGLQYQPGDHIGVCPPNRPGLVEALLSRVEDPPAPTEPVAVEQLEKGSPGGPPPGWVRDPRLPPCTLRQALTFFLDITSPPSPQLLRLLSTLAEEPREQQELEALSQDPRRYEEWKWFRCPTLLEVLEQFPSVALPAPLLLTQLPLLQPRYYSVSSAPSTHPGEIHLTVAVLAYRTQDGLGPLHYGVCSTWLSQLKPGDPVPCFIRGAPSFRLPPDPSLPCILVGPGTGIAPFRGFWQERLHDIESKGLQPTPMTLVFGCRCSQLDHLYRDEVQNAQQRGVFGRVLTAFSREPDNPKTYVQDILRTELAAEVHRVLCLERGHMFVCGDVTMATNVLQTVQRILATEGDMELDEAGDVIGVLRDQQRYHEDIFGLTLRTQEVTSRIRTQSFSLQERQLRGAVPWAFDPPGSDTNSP
B3: RAC-alpha serine/threonine-protein kinase (Homo sapiens), P31749 (parent)
chain: B1 chain
partner: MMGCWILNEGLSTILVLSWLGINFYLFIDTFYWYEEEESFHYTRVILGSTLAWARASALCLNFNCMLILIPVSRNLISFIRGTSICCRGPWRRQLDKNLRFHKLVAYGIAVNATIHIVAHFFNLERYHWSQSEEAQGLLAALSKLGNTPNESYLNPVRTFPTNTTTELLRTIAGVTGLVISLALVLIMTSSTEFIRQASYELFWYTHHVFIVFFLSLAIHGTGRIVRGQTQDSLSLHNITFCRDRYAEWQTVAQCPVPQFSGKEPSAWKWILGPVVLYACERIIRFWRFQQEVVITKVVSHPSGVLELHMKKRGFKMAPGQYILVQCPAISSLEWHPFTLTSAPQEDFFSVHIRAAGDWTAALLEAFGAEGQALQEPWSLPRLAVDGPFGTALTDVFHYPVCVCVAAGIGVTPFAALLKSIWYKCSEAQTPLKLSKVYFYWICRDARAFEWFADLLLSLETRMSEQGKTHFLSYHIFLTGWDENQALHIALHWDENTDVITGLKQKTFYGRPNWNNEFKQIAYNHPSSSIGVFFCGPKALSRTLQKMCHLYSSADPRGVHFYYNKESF
B4: RAC-alpha serine/threonine-protein kinase (Homo sapiens), P31749 (parent)
chain: B1 chain
partner: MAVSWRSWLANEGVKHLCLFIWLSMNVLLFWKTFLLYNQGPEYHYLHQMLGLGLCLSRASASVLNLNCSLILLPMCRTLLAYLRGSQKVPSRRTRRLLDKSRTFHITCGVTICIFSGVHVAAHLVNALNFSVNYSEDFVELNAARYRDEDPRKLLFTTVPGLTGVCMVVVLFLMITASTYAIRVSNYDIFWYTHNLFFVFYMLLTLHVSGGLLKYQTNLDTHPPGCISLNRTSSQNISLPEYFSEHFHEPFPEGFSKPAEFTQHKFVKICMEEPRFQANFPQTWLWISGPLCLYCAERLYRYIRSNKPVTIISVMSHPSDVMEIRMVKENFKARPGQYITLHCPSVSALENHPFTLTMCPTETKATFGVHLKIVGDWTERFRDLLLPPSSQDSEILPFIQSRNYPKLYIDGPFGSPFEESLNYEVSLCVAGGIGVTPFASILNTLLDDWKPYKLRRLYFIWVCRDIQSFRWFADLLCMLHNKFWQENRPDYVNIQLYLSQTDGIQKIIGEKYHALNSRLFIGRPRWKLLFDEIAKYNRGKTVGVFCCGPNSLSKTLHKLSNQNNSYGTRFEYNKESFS
B5: RAC-alpha serine/threonine-protein kinase (Homo sapiens), P31749 (parent)
chain: B1 chain
partner: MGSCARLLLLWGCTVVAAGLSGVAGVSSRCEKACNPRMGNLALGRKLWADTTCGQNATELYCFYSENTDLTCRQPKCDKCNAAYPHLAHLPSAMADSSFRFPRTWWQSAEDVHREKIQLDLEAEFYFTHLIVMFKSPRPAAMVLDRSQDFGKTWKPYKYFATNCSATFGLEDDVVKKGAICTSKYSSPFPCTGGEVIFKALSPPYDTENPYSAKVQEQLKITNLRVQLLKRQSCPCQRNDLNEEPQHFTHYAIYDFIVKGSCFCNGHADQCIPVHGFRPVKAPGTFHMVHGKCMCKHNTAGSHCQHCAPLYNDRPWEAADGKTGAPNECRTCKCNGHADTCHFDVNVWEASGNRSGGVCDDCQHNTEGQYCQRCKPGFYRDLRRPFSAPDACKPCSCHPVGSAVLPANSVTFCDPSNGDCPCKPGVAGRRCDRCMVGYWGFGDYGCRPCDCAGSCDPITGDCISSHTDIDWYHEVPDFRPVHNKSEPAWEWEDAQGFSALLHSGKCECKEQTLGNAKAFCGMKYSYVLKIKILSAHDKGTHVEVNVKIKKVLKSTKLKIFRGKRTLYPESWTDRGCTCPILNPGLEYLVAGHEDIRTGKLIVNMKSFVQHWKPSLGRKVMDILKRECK
B6: RAC-alpha serine/threonine-protein kinase (Homo sapiens), P31749 (parent)
chain: B1 chain
partner: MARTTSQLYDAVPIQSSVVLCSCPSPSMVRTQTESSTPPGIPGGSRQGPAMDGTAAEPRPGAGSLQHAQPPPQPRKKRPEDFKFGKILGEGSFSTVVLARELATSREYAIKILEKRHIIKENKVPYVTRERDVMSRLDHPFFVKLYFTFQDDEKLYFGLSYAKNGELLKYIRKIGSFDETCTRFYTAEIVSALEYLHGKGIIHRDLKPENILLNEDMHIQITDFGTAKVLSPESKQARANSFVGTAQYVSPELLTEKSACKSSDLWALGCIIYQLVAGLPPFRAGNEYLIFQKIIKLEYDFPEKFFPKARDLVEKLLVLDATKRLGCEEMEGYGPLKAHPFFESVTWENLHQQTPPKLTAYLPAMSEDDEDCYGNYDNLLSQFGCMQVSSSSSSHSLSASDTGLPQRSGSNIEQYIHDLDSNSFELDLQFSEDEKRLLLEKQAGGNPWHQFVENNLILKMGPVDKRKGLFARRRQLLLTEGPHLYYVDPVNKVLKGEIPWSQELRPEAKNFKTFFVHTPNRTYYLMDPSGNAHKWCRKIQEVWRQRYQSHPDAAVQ
B7: RAC-alpha serine/threonine-protein kinase (Homo sapiens), P31749 (parent)
chain: B1 chain
partner: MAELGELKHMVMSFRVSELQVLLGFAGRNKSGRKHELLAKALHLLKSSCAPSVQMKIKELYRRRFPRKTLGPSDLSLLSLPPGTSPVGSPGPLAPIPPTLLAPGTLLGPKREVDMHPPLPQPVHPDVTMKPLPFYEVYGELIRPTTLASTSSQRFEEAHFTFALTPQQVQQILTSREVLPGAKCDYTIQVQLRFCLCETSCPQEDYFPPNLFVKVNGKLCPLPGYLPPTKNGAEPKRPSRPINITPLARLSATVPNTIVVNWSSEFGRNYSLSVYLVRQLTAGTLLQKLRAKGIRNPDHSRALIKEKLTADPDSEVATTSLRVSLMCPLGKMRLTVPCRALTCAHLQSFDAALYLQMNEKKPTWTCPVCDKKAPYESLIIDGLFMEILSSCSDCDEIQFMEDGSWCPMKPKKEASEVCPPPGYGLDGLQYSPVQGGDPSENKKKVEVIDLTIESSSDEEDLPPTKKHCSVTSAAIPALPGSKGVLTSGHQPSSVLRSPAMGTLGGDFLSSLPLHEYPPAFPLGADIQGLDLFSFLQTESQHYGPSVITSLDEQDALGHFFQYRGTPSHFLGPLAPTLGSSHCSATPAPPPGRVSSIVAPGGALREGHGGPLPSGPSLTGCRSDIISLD

Variants of: B1
Conditions: with mutyh_human MUTYH

Row | effect of a mutation on the interaction | Variant
1 | causing an interaction | E17K

Variants of: B1
Conditions: with mutyh_human MUTYH
Remark: another data set of the same source

Row | effect of a mutation on the interaction | Variant
2 | increasing interaction strength | E17K

Variants of: B2
Conditions: with nos3_human NOS3, P29474

Row | effect of a mutation on the interaction | Variant
3 | causing an interaction | E17K

Variants of: B3
Conditions: with nox3_human NOX3, Q9HBY0

Row | effect of a mutation on the interaction | Variant
4 | causing an interaction | E17K

Variants of: B4
Conditions: with nox4_human NOX4, Q9NPH5

Row | effect of a mutation on the interaction | Variant
5 | causing an interaction | E17K

Variants of: B5
Conditions: with net4_human NTN4, Q9HB63

Row | effect of a mutation on the interaction | Variant
6 | causing an interaction | E17K

Variants of: B6
Conditions: with pdpk1_human PDPK1, O15530

Row | effect of a mutation on the interaction | Variant
7 | causing an interaction | E17K

Variants of: B7
Conditions: with pias3_human PIAS3, Q9Y6X2

Row | effect of a mutation on the interaction | Variant
8 | causing an interaction | E17K
